Values quoted from earlier work as cited in patent US20180098959A1, “METHODS FOR TREATING CANCER” (BOSTON BIOMEDICAL, INC., priority 2015, published 2018).

Tested on: mCRC
Conditions: Single Agent; panitumumab value for K-Ras WT; cited from earlier work

In the case of cetuximab, the “Historical DCR (in Evaluable patients with mCRC)” value is given as 30-40%.
